Columns and labels:
[1] = target: 5-HT2C receptor (Homo sapiens, UniProt P28335); assay: Radioligand binding to the 5-HT2C receptor ([3H]-5-HT, CHO cell line); details: read-out: Ki(2C), tested form: HCl
Protocol: (§1) 1. Binding to Serotonin Receptors
(§2) The binding of compounds of formula (I) to serotonin receptors was determined in vitro by standard methods. The preparations were investigated in accordance with the assays given hereinafter.
Method (a): For the binding to the 5-HT2C receptor the 5-HT2C receptors were radiolabelled with [^3H]-5-HT. The affinity of the compounds for 5-HT2C receptors in a CHO cell line was determined according to the procedure of D. Hoyer, G. Engel and H.O. Kalkman, European J. Pharmacol., 1985, 118, 13-23.

Amino acid sequences for entries named in this document (tags omitted). Residues count along the entry.
UniProt P28335, 33-458 limits assumed: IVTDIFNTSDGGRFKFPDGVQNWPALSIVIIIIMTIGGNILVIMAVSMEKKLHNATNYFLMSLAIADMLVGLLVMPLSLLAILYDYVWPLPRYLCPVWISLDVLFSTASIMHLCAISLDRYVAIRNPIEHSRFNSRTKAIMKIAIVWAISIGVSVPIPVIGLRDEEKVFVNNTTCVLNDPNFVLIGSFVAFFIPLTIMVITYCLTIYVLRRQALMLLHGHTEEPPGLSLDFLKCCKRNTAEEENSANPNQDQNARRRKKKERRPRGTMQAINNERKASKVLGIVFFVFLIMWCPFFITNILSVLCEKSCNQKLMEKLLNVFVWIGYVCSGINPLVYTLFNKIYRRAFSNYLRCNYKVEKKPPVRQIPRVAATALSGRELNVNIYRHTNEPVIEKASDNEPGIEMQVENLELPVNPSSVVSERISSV
UniProt P28223, whole entry: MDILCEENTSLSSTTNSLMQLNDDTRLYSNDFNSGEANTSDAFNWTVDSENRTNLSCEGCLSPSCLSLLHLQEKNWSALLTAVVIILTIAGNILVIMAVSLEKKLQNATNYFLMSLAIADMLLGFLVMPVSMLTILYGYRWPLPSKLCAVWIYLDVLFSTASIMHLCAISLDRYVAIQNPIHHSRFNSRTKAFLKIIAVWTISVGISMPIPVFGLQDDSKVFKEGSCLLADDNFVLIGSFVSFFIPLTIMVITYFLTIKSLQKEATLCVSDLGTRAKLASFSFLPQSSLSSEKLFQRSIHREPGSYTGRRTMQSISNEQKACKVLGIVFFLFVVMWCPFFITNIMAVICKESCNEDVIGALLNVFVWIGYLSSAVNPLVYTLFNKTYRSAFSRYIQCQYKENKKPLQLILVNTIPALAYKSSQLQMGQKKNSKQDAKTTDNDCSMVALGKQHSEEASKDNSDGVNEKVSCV
UniProt P41595, whole entry: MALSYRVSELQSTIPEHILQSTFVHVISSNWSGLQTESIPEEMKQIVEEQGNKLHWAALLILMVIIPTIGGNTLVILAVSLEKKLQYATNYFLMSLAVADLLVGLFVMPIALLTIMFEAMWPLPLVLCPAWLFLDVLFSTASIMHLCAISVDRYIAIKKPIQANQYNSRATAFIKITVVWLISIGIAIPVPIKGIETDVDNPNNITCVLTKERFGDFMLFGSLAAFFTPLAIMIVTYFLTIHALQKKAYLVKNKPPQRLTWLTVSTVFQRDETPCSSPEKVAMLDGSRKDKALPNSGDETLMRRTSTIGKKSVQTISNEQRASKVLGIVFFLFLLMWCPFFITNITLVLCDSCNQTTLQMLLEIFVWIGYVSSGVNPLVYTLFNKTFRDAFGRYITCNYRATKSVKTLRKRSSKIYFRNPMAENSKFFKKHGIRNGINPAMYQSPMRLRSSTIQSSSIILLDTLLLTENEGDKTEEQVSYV

[2] = target: 5-HT2A receptor (Homo sapiens, UniProt P28223); assay: Radioligand binding to the 5-HT2A receptor ([125I]-DOI, CHO cell line); details: read-out: Ki(2A), tested form: HCl
Protocol: as §1, §2
Method (c): For the binding to the 5-HT2A receptor the 5-HT2A receptors were radiolabelled with [^125I]-DOI. The affinity of the compounds for 5-HT2A receptors in a CHO cell line was determined according to the procedure of D. J. McKenna and S. J. Peroutka, J. Neurosci., 1989, 9/10, 3482-90.

[3] = target: human 5-HT2B receptors (Homo sapiens, UniProt P41595); assay: Radioligand binding to the 5-HT2B receptor ([3H]-5-HT, CHO cell line); details: read-out: Ki(2B), tested form: HCl
Protocol: as §1, §2
Method (b): For the binding to the 5-HT2B receptor the 5-HT2B receptors were radiolabelled with [^3H]-5-HT. The affinity of the compounds for human 5-HT2B receptors in a CHO cell line was determined according to the procedure of K. Schmuck, C. Ullmer, P. Engels and H. Lubbert, FEBS Lett., 1994, 342, 85-90.

[4] = target: h5-HT2A receptors (Homo sapiens, UniProt P28223); assay: Functional activity, FLIPR calcium assay in CHO cells expressing h5-HT2A; details: maximum fluorescent signal compared with 10 μM 5-HT (defined as 100%); tested form: HCl
Protocol: (§3) The functional activity of compounds of formula (I) was assayed using a Fluorimetric Imaging Plate reader (FLIPR) in the following manner.
(§4) CHO cells expressing either the h5-HT2C or h5-HT2A receptors were counted and plated into standard 96 well microtitre plates before the day of testing to give a confluent monolayer. The following day the cells were dye loaded with the calcium sensitive dye Fluo 3-AM by incubation with serum free culture maintenance media containing pluronic acid and Fluo 3-AM dissolved in DMSO at 37° C. in a CO2 incubator at 95% humidity for approximately 90 minutes. Unincorporated dye was removed by washing with Hanks balanced salt solution containing 20 mM HEPES and 2.5 mM probenecid (the assay buffer) using an automated cell washer to leave a total volume of 100 μL/well.
(§5) The drug (dissolved in 50 μL of assay buffer) was added at a rate of 70 μL/sec to each well of the FLIPR 96 well plate during fluorescence measurements. The measurements are taken at 1 sec intervals and the maximum fluorescent signal was measured (approx 10-15 secs after drug addition) and compared with the response produced by 10 μM 5-HT (defined as 100%) to which it is expressed as a percentage response (relative efficacy). Dose response curves were constructed using Graphpad Prism (Graph Software Inc.).

[5] = target: h5-HT2C (Homo sapiens, UniProt P28335); assay: Functional activity, FLIPR calcium assay in CHO cells expressing h5-HT2C; details: tested form: HCl
Protocol: as §3, §4, §5

SMILES	Ki [1] [nM]	Ki [2] [nM]	Ki [3] [nM]	h5-HT2A Relative Efficacy [4] [%]	h5-HT2C Relative Efficacy ([5]; maximum fluorescent signal compared with 10 μM 5-HT (defined as 100%)) [%]	EC50 ([5]; read-out: h5-HT2C EC50, FLIPR, CHO cells) [nM]
C[C@H](N)Cn1c2ccccc2c2sccc21	27	106	58			
C[C@H](N)Cn1c2ccsc2c2c(Cl)cc(Cl)cc21				0	93	1730

Source: patent US6706750B1, “Indole derivatives process for their preparation, pharmaceutical compositions containing them and their medicinal application” (priority 1999, dated 2004)
